The source of these data is patent publication US4363812A, “3-(Tetrazol-5-yl), 4-methyl-8-alkoxy coumarins and anti-allergic compositions thereof” (priority 1978, dated 1982).

The conditions of data set [1]: in vivo.
The nature of data set [2]: safety margin (LD50 /MED). The conditions noted are these: in vivo, po.

Turning to `Cc1c(-c2nnn[nH]2)c(=O)oc2c(Cl)cccc12` [Compound I, reference compound], the “Relative value of safety margin” value in data set [1] was determined as 1.0. The selectivity ratio in data set [2] amounted to 167.

Regarding `CCCCCOc1cccc2cc(-c3nnn[nH]3)c(=O)oc12` [Example 1, 8-n-Pentyloxy-3-(1H-tetrazol-5-yl)coumarin], in data set [1], the “Relative value of safety margin” value is 5. Also, in data set [2], the selectivity ratio came to 853.

Regarding `CCOc1cccc2cc(-c3nnn[nH]3)c(=O)oc12` [Example 4, 8-Ethoxy-3-(1H-tetrazol-5-yl)coumarin], the “Relative value of safety margin” value in data set [1] was 2.4. In addition, in data set [2], the selectivity ratio was found to be 400.

`Cc1ccc2oc(=O)c(-c3nnn[nH]3)c(C)c2c1` [J, reference compound]: the “Relative value of safety margin” value in data set [1] came to 0.3. In addition, the selectivity ratio in data set [2] was determined as 21.
